## Curated experimental data: melting point values

Values as listed in the OPERA 2.9 repository of K. Mansouri.

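The OPERA project collected these measurements from public sources as training and test data for property models. One number stands for a compound and property, with no spread given. Method and conditions are not stated for these values. A value may pool stereoisomers or salt forms, and the file does not say which form was measured. Unmarked limits or estimates from the upstream databases cannot be ruled out.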

The melting point is given in degrees Celsius.

{"smiles": "O=[N+]([O-])c1cc([N+](=O)[O-])c(Nc2ncc(C(F)(F)F)cc2Cl)c(C(F)(F)F)c1", "MP (°C)": "90"}
{"smiles": "NC(=O)c1c(NC(=O)CCl)sc2c1CCCC2", "MP (°C)": "237"}
{"smiles": "CC1=NS(=O)(=O)c2ccccc21", "name": "1,2-Benzisothiazole, 3-methyl-, 1,1-dioxide", "MP (°C)": "212.4"}
{"smiles": "O=c1[nH]nc(-c2ccco2)o1", "name": "5-(Furan-2-yl)-1,3,4-oxadiazol-2(3H)-one", "MP (°C)": "112"}
{"smiles": "O=C1C=CC(=O)N1c1ccc(F)c(Cl)c1", "name": "1-(3-Chloro-4-fluorophenyl)-1H-pyrrole-2,5-dione", "MP (°C)": "160"}
{"smiles": "CC(=O)Nc1cccc(N=C=S)c1", "name": "Acetamide, N-(3-isothiocyanatophenyl)-", "MP (°C)": "155"}
{"smiles": "O=C(CCl)Nc1ccc(Cl)c(Cl)c1", "name": "2-chloro-N-(3,4-dichlorophenyl)acetamide", "MP (°C)": "104"}
{"smiles": "CC(O)c1cccc(N)c1", "stereo": "stereo unspecified", "name": "1-(3-Aminophenyl)ethanol", "MP (°C)": "67.5"}
{"smiles": "CCOc1ccccc1C(=N)N.Cl", "name": "2-Ethoxybenzamidine hydrochloride", "MP (°C)": "206.8"}
{"smiles": "O=C(O)COc1ccc2sc3ccccc3c(=O)c2c1", "name": "((9-Oxo-9H-thioxanthen-2-yl)oxy)acetic acid", "MP (°C)": "217.5"}
{"smiles": "N#CC1(N)CCCCC1", "name": "1-Aminocyclohexanecarbonitrile", "MP (°C)": "26"}
{"smiles": "Cc1ccc(C)c2[nH]c(C(=O)O)cc12", "name": "4,7-dimethyl-1H-indole-2-carboxylic Acid", "MP (°C)": "207"}
{"smiles": "COc1ccc2cc(C(=O)O)[nH]c2c1", "name": "6-Methoxyindole-2-carboxylic acid", "MP (°C)": "191"}
{"smiles": "COc1ccc(/C=C(\\C#N)C(=O)O)cc1OC", "name": "(E)-2-Cyano-3-(3,4-dimethoxyphenyl)prop-2-enoic acid", "MP (°C)": "188"}
{"smiles": "NCCO.NCCO.NCCO.O=C(O)CN(CC(=O)O)CC(=O)O", "MP (°C)": "-21"}
{"smiles": "CC(C)(C)OC(=O)N[C@H](C(=O)O)C12CC3CC(CC(O)(C3)C1)C2", "MP (°C)": "180.2"}
{"smiles": "COc1ccc(S(N)(=O)=O)cc1N", "name": "Benzenesulfonamide, 3-amino-4-methoxy-", "MP (°C)": "146"}
{"smiles": "CCOc1ccc(C(=O)NN)cc1OC", "name": "4-ethoxy-3-methoxybenzohydrazide", "MP (°C)": "162"}
{"smiles": "Nc1cc(S(=O)(=O)O)c(Nc2ccc3c(c2S(=O)(=O)O)Oc2c(Cl)c4c(c(Cl)c2=N3)Oc2c(ccc(Nc3cc(S(=O)(=O)O)c(N)cc3S(=O)(=O)O)c2S(=O)(=O)O)N=4)cc1S(=O)(=O)O", "MP (°C)": "323.7"}
{"smiles": "CC(C)(C)C(=O)NCC(=O)O", "name": "2-Pivalamidoacetic acid", "MP (°C)": "133"}
{"smiles": "CSCCC(N=C(O)OC(C)(C)C)C(=O)O", "stereo": "stereo unspecified", "name": "N-[tert-Butoxy(hydroxy)methylidene]methionine", "MP (°C)": "49.5"}
{"smiles": "Nc1cc2c(cc1Cl)OCO2", "name": "6-chloro-1,3-benzodioxol-5-amine", "MP (°C)": "91"}
{"smiles": "O=C[C@H](O)[C@@H](O)[C@H](O)[C@H](S)CO", "name": "5-Thio-D-glucose", "MP (°C)": "136"}
{"smiles": "CC1CCCCN1S(=O)(=O)c1ccc(C(=O)O)cc1", "stereo": "stereo unspecified", "name": "4-[(2-methylpiperidin-1-yl)sulfonyl]benzoic acid", "MP (°C)": "203"}
{"smiles": "Cc1cc(C=O)c(C)n1-c1cccc(F)c1", "name": "1-(3-Fluorophenyl)-2,5-dimethyl-1H-pyrrole-3-carbaldehyde", "MP (°C)": "79"}
{"smiles": "O=S1(=O)C=CCC1", "name": "Thiophene, 2,3-dihydro-, 1,1-dioxide", "MP (°C)": "63"}
{"smiles": "CCCC1CCC(c2ccc(-c3ccc(CC)cc3)cc2)CC1", "stereo": "stereo unspecified", "MP (°C)": "166"}
{"smiles": "CC(C)(C#N)C(=O)O", "name": "2-CYANO-2-METHYLPROPANOIC ACID", "MP (°C)": "55"}
{"smiles": "C=CCOCC(=C)C(=O)OC", "name": "Methyl 2-((allyloxy)methyl)acrylate", "MP (°C)": "-42.9"}

4 of these entries, quoted again:

{"smiles": "Nc1cc2c(cc1Cl)OCO2", "name": "6-chloro-1,3-benzodioxol-5-amine", "MP (°C)": "91"}
{"smiles": "CCOc1ccc(C(=O)NN)cc1OC", "name": "4-ethoxy-3-methoxybenzohydrazide", "MP (°C)": "162"}
{"smiles": "C=CCOCC(=C)C(=O)OC", "name": "Methyl 2-((allyloxy)methyl)acrylate", "MP (°C)": "-42.9"}
{"smiles": "O=[N+]([O-])c1cc([N+](=O)[O-])c(Nc2ncc(C(F)(F)F)cc2Cl)c(C(F)(F)F)c1", "MP (°C)": "90"}